Source: patent US10881656B2, “HIF inhibitors and use thereof” (The General Hospital Corporation, priority 2008, dated 2021)

Experiments:
HIF-2a = assay: Western blot for HIF-2a protein expression; format: cell-based, human; conditions: 786-O cells
IRP1 = target: T1, IRP1 (Homo sapiens, UniProt P21399); assay: HIF-2a activity (EGLN3 qRT-PCR) in IRP knock down lines; conditions: 786-O IRP knock down lines
T1 sequence (P21399 1-889): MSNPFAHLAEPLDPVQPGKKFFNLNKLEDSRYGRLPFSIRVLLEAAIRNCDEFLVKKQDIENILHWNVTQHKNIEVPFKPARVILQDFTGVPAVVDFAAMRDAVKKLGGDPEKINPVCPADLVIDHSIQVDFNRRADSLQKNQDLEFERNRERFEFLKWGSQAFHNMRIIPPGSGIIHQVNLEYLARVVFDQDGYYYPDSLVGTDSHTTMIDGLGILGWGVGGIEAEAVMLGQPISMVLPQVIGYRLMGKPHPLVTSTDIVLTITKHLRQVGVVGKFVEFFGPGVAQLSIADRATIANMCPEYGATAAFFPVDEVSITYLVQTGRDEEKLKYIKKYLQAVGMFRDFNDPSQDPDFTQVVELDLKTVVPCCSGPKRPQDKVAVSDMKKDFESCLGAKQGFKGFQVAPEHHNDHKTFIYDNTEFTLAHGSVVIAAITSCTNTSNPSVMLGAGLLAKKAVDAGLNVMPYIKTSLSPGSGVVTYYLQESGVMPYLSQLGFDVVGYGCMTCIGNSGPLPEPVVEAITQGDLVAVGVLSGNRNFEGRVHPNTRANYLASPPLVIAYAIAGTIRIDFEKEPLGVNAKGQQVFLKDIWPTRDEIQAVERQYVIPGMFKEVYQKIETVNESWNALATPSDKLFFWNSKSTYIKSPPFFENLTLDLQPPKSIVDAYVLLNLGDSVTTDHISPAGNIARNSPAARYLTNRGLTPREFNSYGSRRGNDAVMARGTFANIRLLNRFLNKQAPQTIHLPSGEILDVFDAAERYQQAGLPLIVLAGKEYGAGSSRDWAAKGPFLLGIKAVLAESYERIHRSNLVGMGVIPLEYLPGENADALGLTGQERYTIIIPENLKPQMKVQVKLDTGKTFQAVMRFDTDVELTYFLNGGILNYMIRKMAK

`CCCCC/C=C/C=C1/C(=O)C=C[C@@H]1C/C=C\CCCC(=O)O` [PGJ2, 15-deoxy-Δ^12,14-prostaglandin J2] was tested, and the HIF-2a protein expression (HIF-2a) was “decreased” and the “effect on HIF-2a activity when IRP1 is knocked down” value (IRP1) was “down regulation of IRP1 abolished the ability of PGJ2 to repress HIF2a activity”.
